Biological target: human PDE1B (Homo sapiens (Human), UniProt Q01064)
Experiment: PDE1B inhibitory assay (IMAP TR-FRET)
Details: negative log of half-maximal molar inhibitory concentration; 200 nM FAM-cAMP, Calmodulin, CaCl2

Sequences of proteins named here, by UniProt entry; tags and fusion partners are left off.
UniProt Q01064, whole entry: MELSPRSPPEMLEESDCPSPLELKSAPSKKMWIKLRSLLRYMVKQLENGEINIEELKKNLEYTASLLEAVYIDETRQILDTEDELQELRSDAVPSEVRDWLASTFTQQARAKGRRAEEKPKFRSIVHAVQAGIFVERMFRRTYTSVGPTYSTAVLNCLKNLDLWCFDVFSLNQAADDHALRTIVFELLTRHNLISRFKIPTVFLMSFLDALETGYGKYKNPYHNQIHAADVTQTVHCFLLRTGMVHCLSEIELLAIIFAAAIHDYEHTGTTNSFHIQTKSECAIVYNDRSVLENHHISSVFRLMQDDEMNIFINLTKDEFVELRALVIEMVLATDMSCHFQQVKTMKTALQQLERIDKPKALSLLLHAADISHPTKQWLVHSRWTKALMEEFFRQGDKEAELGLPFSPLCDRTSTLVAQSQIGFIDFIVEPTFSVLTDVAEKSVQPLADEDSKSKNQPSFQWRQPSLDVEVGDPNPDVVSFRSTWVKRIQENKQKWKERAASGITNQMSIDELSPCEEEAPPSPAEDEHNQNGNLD

| PDE1B pIC50 | Compound |
| --- | --- |
| >7 | O=C(C1CCOC1)N1CCc2c(sc3c2c2ncnn2c(=O)n3Cc2ccc(Cl)cc2F)C1 (centres unmarked) |
| 6-7 | COc1ccc(Cn2c(=O)n3ncnc3c3cc(CN4CCOCC4(C)C)cnc32)cc1 |
